# Results: ChEMBL document CHEMBL3272356, “Adriamycin analogs. Periodate oxidation of adriamycin” (J Med Chem, 1976)
# Assay: Dissociation constant, pKa of the compound
structure (smiles),measurement,value
COc1cccc2c1C(=O)c1c(O)c3c(c(O)c1C2=O)C[C@@](O)(C(=O)CO)C[C@@H]3O[C@H]1C[C@H](N)[C@H](O)[C@H](C)O1 [DOXORUBICIN],pKa,8.22
